One test has as its target mouse 11β-HSD1 (Mus musculus, UniProt P50172). Put plainly: scintillation proximity assay (SPA), microsomes of HEK-293 cells transfected with mouse 11β-HSD1. The following applies: read-out: Mouse (IC50) 11β-HSD1; Table 1, initial enzymatic assay; averages of two determinations. (In general: Scintillation proximity formats need no separation of bound from free tracer.)
For a further test, the target named is human 11β-HSD1 (Homo sapiens, UniProt P28845). Put plainly: scintillation proximity assay (SPA), microsomes of HEK-293 cells transfected with human 11β-HSD1. The note with it: read-out: Human (IC50) 11β-HSD1; Table 1, initial enzymatic assay; averages of two determinations.

Chains of the proteins cited; added tags and fusions are not shown.
UniProt P50172, whole entry: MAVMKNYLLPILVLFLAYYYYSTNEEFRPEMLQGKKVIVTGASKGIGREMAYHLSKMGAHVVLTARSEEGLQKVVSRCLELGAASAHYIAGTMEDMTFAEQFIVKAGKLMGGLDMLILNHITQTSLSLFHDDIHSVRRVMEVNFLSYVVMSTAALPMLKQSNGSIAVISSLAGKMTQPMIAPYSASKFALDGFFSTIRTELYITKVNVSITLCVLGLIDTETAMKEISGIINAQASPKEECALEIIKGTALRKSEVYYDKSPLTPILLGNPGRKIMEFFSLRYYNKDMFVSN
UniProt P28845, whole entry: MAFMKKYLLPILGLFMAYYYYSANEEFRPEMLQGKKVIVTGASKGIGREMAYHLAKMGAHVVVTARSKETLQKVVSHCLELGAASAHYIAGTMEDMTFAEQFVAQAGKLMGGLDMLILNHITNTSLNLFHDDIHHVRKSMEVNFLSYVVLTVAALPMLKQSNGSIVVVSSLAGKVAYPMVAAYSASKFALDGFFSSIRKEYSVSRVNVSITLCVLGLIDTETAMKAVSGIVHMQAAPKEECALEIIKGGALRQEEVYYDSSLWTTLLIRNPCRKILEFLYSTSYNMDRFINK

These results are taken from article PMC9492458, “Development and structure–activity relationships of tanshinones as selective 11β-hydroxysteroid dehydrogenase 1 inhibitors” (Natural Products and Bioprospecting, 2022).

Usually IC50 stands for the point on the concentration scale where inhibition reaches its midpoint.

Turning to `Cc1coc2c1C(=O)C(=O)c1c-2ccc2c1CCCC2(C)O` (stereo not shown), the IC50 on mouse 11β-HSD1 is 400 nM; at human 11β-HSD1 it was 1000 nM.

Turning to `Cc1coc2c1C(=O)C(=O)c1c-2ccc2c1CCC[C@]2(C)CO`, the values for the IC50 on mouse 11β-HSD1 and at human 11β-HSD1 were 113 nM and 168 nM, respectively.

As to `Cc1cccc2c3c(ccc12)C1=C(C(=O)C3=O)[C@@H](C)CO1`, the IC50 on mouse 11β-HSD1 stood at 392 nM; at human 11β-HSD1, 206 nM.

In the case of `Cc1cccc2c3c(ccc12)C(=O)C([C@@H](C)CO)=C(O)C3=O`, the values for the half-maximal inhibitory concentration (IC50) on mouse 11β-HSD1 and at human 11β-HSD1 were 4000 nM and 12200 nM, respectively.

For `CC(=O)C[C@]1(O)C(=O)C2=C(OC[C@@H]2C)c2ccc3c(C)cccc3c21`, the IC50 at mouse 11β-HSD1 came to 1700 nM; at human 11β-HSD1, 2200 nM.
